Laboratory results as given in PubChem BioAssay AID620 (Sanford-Burnham Center for Chemical Genomics, 2007).
This is a selection; strong and weak results do not stand in their true shares. Active and inactive are the calls of the source. No stated cut-off is given here; in the data, active means cytotoxicity above about 50%; inactive means the rest.

test: cytotoxicity in HT1080 fibrosarcoma cells, cell-based, fluorescence readout (AID 620); settings: HT1080 viability, at 10 µM, active compounds read high;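 further: cells exposed to compound overnight then 4 h with Alamar Blue; 0% = vehicle DMSO and 100% = killing control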

| Compound | cytotoxicity |
| --- | --- |
| N/C(=N\O)c1c(N)no[n+]1[O-] | inactive: 0% |
| c1ccc(CN2CCC(Nc3ccccc3)CC2)cc1 | inactive: 12.3% |
| Fc1ccccc1NC1CCN(Cc2ccccc2)CC1 | inactive: -1.3% |
| CCOc1ncccc1C(=O)NCC1(N2CCOCC2)CCCCC1 | inactive: 4.1% |
| CCC(CO)(C(=O)OC1CN2CCC1CC2)c1ccccc1 (stereo not given) | inactive: -7.5% |
| O=C(OC1CN2CCC1CC2)C1c2ccccc2Oc2ccccc21 (stereo not given) | inactive: -9.7% |
| O=C(NCC1(N2CCOCC2)CCCCC1)c1cc2ccccc2o1 | inactive: 1.6% |
| COc1ccc(NC2CCN(CCc3ccccc3)CC2)c(OC)c1 | inactive: 5% |
| N#CC1(Nc2ccccc2)CCN(CCc2ccccc2)CC1 | inactive: 5.9% |
| O=C(NCC1(N2CCOCC2)CCCCC1)c1cc(=O)[nH]c2ccccc12 | inactive: 14.1% |
